Tests used:
Assay type in all cases: in vivo
[1] = test system: immunocompromised mice (NIH-bg-nu/nu-xid), xenograft bone graft model; test: xenograft bone regeneration experiment using mouse (Bio-Oss + hDPSC graft on the back); settings: peptide 10 μg, BMP-2 2 μg
Procedure: Using the graft materials having the components as in Table 2, each of the following four groups was grafted on the back of the immunodeficient mice as described below, and newly formed hard tissues were analyzed over 3 weeks and 6 weeks after the graft. The doses used were as follows: Geistlich Bio-Oss: 100 mg; hDPSC (human dental pulp stem cell): 5×10^6 cells; Peptide according to the invention: 10 μg; and BMP-2 (BD Science): 2 μg (Kevin et al., Adv Drug Deliv Rev. 2012; 64: 1277-1291).
For the animal experiments, 6-week-old immunocompromised mice (NIH-bg-nu/nu-xid, Harlan Sprague Dawley, Indianapolis, Ind., USA) were anesthetized and each of the composition as above with 0.5% fibrin gel was inserted in the incision made on the back of the mouse and the incisions were re-sutured. Peptides and BMP-2 were diluted in saline solution and the same volume of saline solution was used as a control. […]
The mice were sacrificed at 3 and 6 weeks after each composition as described above was administered, and the treated sites were separated and fixed in a 4% para-formaldehyde solution. […] Quantitative analysis of the newly formed hard tissues using H&E staining was performed as previously described from (Lee et al., Biomaterials 2011; 32: 9696-9706).

[2] = test system: rat calvarial defect model; test: bone regeneration in rat calvarial defect model (ACS graft, micro-CT, qRT-PCR); settings: 3 weeks and 5 weeks, versus control
Procedure: First, a graft material having components corresponding to the respective conditions in Table 3 was used on laboratory rats as an animal model was. 8- week-old male rats were used to avoid errors due to hormonal changes. The breeding and management of the experimental animals were performed according to the criteria of the laboratory animal center of Seoul National University. […] At 3 and 5 weeks after the graft, newly formed bone tissues were examined. Bone-regeneration peptides and BMP-2 were used diluted in saline solution and the same volume of saline solution was used as a control. The doses used were: ACS (absorbable collagen sponge) (Kevin et al., Adv Drug Deliv Rev. 2012; 64: 1277-1291): 8 mm diameter; Peptide according to the invention: 100 μg/ACS disc; rhBMP-2: 2 μg/ACS disc […]
The micro-CT method was used for the analysis and the skulls were removed after sacrificing the rats at 3 and 5 weeks after surgery. […] Quantitative analysis of the newly formed regenerated bone was performed by measuring the volume of calcified tissue within the injured area to assess the degree of bone regeneration.
This is the quantitative real-time PCR results for each gene indicated in the figure, which were performed on cDNA synthesized from isolated RNA extracted from newly formed tissues at 3 weeks and 5 weeks. […]

femur muscle of mouse = test: ectopic ossification analysis, ACS graft in femur muscle, micro-CT; settings: BMP-2 2 μg left femur, peptide 600 μg right femur; n=10; eight weeks after operation
Procedure: First, the present peptide or BMP-2 was adsorbed on ACS to prepare a graft material. ACS used was a disc of 5 mm in diameter and the present peptide and BMP-2 were used dissolved in saline solution. BMP-2 was used at the concentration of 2 μg and the present peptide was used at the concentration of 600 μg, which is 300 times that of BMP-2.
For animal experiments, the graft material containing BMP-2 was inserted into an incision made at the left femur muscle of a 6-week-old male mouse, and the graft containing the present peptide was inserted into an incision made at the right femur, which were performed after anesthetizing the mice followed by the sequential incision of the epidermis and fascia of the left and right femur. There was no significant difference in body weight before and after surgery and right before the sacrifice. Further there was no significant difference in the consumption of feed. Eight weeks after the operation, animals were euthanized and micro-CT analysis was performed to observe calcification (ectopic ossification) in the muscle. All 10 animals were used.

“BMP-2: bone inducing factor BMP-2 (BD Science), positive control” was tested, and the “amount of hard tissue formed (H&E staining)” value ([1]; 3 weeks after graft) was “increased compared to the negative control group”, the “hard tissue development (H&E staining)” value ([1]; 6 weeks after graft) was “significantly higher than that of the negative control group” and the “osteogenesis-related gene expression in newly formed tissue (quantitative real-time PCR)” value [2] was “Higher levels of osteogenesis-related gene expression”. For the same substance, the “ectopic ossification (calcification in the muscle), micro-CT” value (femur muscle of mouse) was “distinct ectopic ossification in all the mice treated”.

Reference: US20230181677A1, “POLYPEPTIDE FOR PROMOTING BONE REGENERATION OR BONE FORMATION AND ITS USE” (SEWON BIOTECHNOLOGY INC., priority 2016, published 2023)
